Antibody variant affinities, Ab-14 heavy chain, assay 1

The target is the same throughout: PDVDLGDISGINAS, from the HR2 region of SARS-CoV-2 spike.

Parent: Ab-14, a human scFv built as VH, three GGGGS repeats, VL. Only the CDRs of the heavy chain vary.
VH: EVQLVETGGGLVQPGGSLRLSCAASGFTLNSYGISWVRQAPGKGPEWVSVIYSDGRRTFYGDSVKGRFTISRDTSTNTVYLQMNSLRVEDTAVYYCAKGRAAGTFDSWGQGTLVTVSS
VL: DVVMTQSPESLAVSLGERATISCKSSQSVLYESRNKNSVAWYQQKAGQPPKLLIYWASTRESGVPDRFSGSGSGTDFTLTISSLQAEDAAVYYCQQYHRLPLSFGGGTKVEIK

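Phage display of a naive human antibody library on the peptide gave the parent. Library AAYL49 holds single substitutions and randomly drawn double and triple substitutions in the CDRs. The scFvs were displayed on barcoded MATa yeast, the peptide on MATalpha yeast. Pairs that bind mate more often; barcode pairs of the diploids are counted by sequencing. Each replicate has its own calibration line, from reference interactions of the BCL2 family. Each pool was mated in three replicate cultures.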

Positions count from residue 1 of the parent VH; R57N puts N in place of R.
Scale: log10 of Kd in nM, estimated from mating counts; low values are strong binders.
Averages over replicates are reported, and they cover detected replicates only.
A pair that was not seen in that replicate is written "nd"; this usually means weak binding, but a binder can also be missed.
In this assay the parent's reference entry averaged 0.65; its copy inside this library read 4.11 (one replicate of three).

changes	replicates, log10 nM	log10 Kd (nM), mean	empty controls
R57N+G103M+S107H	nd / 2.01 / 1.62	1.82	0/9
I51K+D54T+D106Q	nd / nd / nd	nd	1/9 (3.58)
Y32L+D54W+R100W	nd / nd / nd	nd	0/9
I34L+G55D	4.10 / nd / 4.77	4.43	4/9 (4.63)
Y32N+G33S+T104N	4.17 / 4.08 / nd	4.12	4/9 (4.22)
F27I+I34F+A101D	nd / nd / 3.95	3.95	3/9 (5.09)
S31T+I51T+G55T	nd / nd / 4.72	4.72	0/9
S35K+S63N+G103I	nd / nd / nd	nd	0/9
L29F+V64H	nd / nd / nd	nd	0/9
G55K+R57Q+T104K	nd / nd / nd	nd	0/9
S35G+A101G+G103R	nd / nd / nd	nd	0/9
G26H+S31V+T58N	nd / nd / nd	nd	0/9
G33S+Y52G	nd / 4.29 / nd	4.29	2/9 (3.43)
Y32Q+Y52D+S63E	nd / 5.11 / nd	5.11	3/9 (3.85)
Y52F+Y60S+V64E	nd / nd / nd	nd	0/9
R56Q	0.54 / 0.72 / 0.63	0.63	2/9 (3.96)
N30A+S31K+Y52E	3.20 / 4.18 / nd	3.69	0/9
T28C+G99N+A101M	nd / nd / nd	nd	3/9 (3.44)
T28P+S31N+I51D	5.33 / nd / nd	5.33	0/9
R57K+V64N+D106A	nd / nd / nd	nd	1/9 (2.73)
V50P+T58R+F59N	nd / nd / nd	nd	0/9
D54T+R56W+F105L	nd / nd / 4.71	4.71	2/9 (4.38)
D54N+R100H+A101C	nd / nd / nd	nd	1/9 (3.73)
N30Y+G33R+S35F	nd / nd / nd	nd	0/9
T58F+Y60S+G99D	nd / nd / nd	nd	1/9 (3.88)
S35C+V64E+K65T	nd / nd / nd	nd	0/9
A101H+A102R+G103V	nd / nd / nd	nd	0/9
G26P+S31M+S107Q	2.55 / 1.51 / 2.10	2.05	0/9
G26I+I34V+S63M	nd / nd / nd	nd	3/9 (3.34)
F27D+I34L+V64W	nd / nd / nd	nd	5/9 (4.33)
G61W+A102S	nd / nd / 3.38	3.38	0/9
D54E+R56V+D106A	nd / nd / 5.06	5.06	3/9 (3.69)
S31W+D106M	nd / nd / nd	nd	0/9
G26Y+T28V+Y52C	nd / nd / nd	nd	0/9
S31C+V50E+R100H	nd / 3.69 / nd	3.69	3/9 (3.38)
V64P+D106I	nd / nd / nd	nd	0/9
N30A+S31A+S63L	nd / nd / nd	nd	0/9
N30K+I34G+S107H	nd / nd / nd	nd	0/9
T28Q+Y32N+R56F	3.27 / nd / nd	3.27	1/9 (3.95)
Y52M+V64I+K65T	nd / nd / nd	nd	2/9 (2.85)
S31I+F59R+S107Y	3.66 / 3.58 / nd	3.62	1/9 (4.60)
V50E+R56Y+T104V	nd / nd / nd	nd	1/9 (2.73)
S53Y+G103M	2.88 / nd / nd	2.88	0/9
I34Y+S53Q+G99C	2.22 / 2.16 / 1.79	2.06	2/9 (3.12)
S31T+G33F+F105R	nd / nd / nd	nd	3/9 (4.44)
G26R+F27N+T28F	2.64 / 3.41 / 3.70	3.25	3/9 (3.90)
T58H+A101Y+S107H	3.05 / 2.68 / 3.71	3.15	0/9

The closing 4 entries, repeated:

| changes | replicates, log10 nM | log10 Kd (nM), mean | empty controls |
|---|---|---|---|
| I34Y+S53Q+G99C | 2.22 / 2.16 / 1.79 | 2.06 | 2/9 (3.12) |
| S31T+G33F+F105R | nd / nd / nd | nd | 3/9 (4.44) |
| G26R+F27N+T28F | 2.64 / 3.41 / 3.70 | 3.25 | 3/9 (3.90) |
| T58H+A101Y+S107H | 3.05 / 2.68 / 3.71 | 3.15 | 0/9 |

Empty control strains, which show no peptide, gave a signal in 15% of pairings with library AAYL49; the median was 4.06 and 95% of these signals were weaker than 2.83. No background was subtracted. The control count says in how many pairings with the empty strains this scFv gave a signal, with their mean in brackets.

The measurements come from Engelhart et al. 2022 (doi:10.1038/s41597-022-01779-4) through the FLAb antibody collection.